ChEMBL document CHEMBL1154314, “Synthesis and antitumor activities of 3-modified 2-methoxyestradiol analogs” (Bioorg Med Chem Lett, 2009)
Active and inactive are the calls of the source. The rule behind the calls is not given here.

System: MCF7
Assay: Estrogenic activity in human MCF7 cells assessed as stimulation of cell proliferation relative to 2ME2
Type: functional

## COc1cc2c(cc1C(=O)O)CC[C@@H]1[C@@H]2CC[C@]2(C)[C@@H](O)CC[C@@H]12
  fold change (FC): inactive
